Results reported in paper PMC2137757 (The Journal of Experimental Medicine, 1964).
Like-named read-outs stand apart in the source and are kept apart here.

System: deoxyribonucleic acid of adrenal
Assay type: in vivo, rat
Conditions: Table VII

## Cc1ccc2cc3c(ccc4ccccc43)c3c2c1CC3 [3-MC, 3-Methylcholanthrene]
3-MC 2.5 mg i.v. at -24 hrs
  Tritium content of adrenal: 0.095 ~clgm
  Tritium content of adrenal, per cent of controls: 72 per cent
3-MC 2.5 mg i.v. at -28 hrs and 7,12-DMBA 5 mg i.v. at -4 hrs
  Tritium content of adrenal, per cent of controls: 67 per cent
